One experiment concerns the target WDR5 (Homo sapiens, UniProt P61964). The note with it: read-out: Ki for Inhibition of WDR5 by TR-FRET assay; WDR5-His tag (Δ23, residues 24-334) 2 nM; 10mer-Thr-FAM probe 150 nM; Tb-anti-HIS 1 nM; 60 min, room temperature. In general terms: Time-resolved FRET reads energy transfer from a long-lived donor to a nearby acceptor.
Experiment [1] has as its system MV4:11 human cancer cell lines. Nature of the experiment: Cellular viability / anti-proliferative activity, CellTiter-Glo, 5 day protocol. The format is cell-based. The conditions noted are these: read-out: GI50 on cellular proliferation of MV4:11 human cancer cell lines, MV4:11 cells, 5 day incubation, mean of minimum two replicates. A general note: ATP-based viability assays read luminescence as a measure of living cells.

The Ki is a measure of affinity in units of concentration, obtained from inhibition or displacement. In the case of `Cc1ccnc(CN2CCc3c(cc(Cn4ccnc4C)cc3-c3cn(C)nc3C(F)(F)F)C2=O)c1`, the Ki at WDR5 was < 0.05 nM. Besides, in experiment [1], the GI50 came out at 67 nM.
The matching figures for `CCc1nccn1Cc1cc2c(c(-c3cn(CC)nc3C(F)(F)F)c1)CCN([C@@H](C)c1cc(OC)ccn1)C2=O`: < 0.05 nM and < 50 nM.
